ChEMBL document CHEMBL4024777, “Discovery of LY3104607: A Potent and Selective G Protein-Coupled Receptor 40 (GPR40) Agonist with Optimized Pharmacokinetic Properties to Support Once Daily Oral Treatment in Patients with Type 2 Diabetes Mellitus” (J Med Chem, 2018)

Experiment: Intrinsic clearance in human hepatocytes
Type: ADME, cell-based, Hepatocyte

K: 0.28 h⁻¹
SMILES: CC#C[C@@H](CC(=O)O)c1ccc(OCc2ccc(CN3CCC4(C=Cc5ccccc54)CC3)cc2)cc1 [LY2881835]
